In paper PMC4074120, “Discovery of Novel GPVI Receptor Antagonists by Structure-Based Repurposing” (PLoS ONE, 2014):

Target: T1, GPVI (platelet glycoprotein VI) (Homo sapiens, UniProt Q9HCN6)
T1 construct: gene GP6; native receptor on washed human platelets
T1 sequence (Q9HCN6 21-339): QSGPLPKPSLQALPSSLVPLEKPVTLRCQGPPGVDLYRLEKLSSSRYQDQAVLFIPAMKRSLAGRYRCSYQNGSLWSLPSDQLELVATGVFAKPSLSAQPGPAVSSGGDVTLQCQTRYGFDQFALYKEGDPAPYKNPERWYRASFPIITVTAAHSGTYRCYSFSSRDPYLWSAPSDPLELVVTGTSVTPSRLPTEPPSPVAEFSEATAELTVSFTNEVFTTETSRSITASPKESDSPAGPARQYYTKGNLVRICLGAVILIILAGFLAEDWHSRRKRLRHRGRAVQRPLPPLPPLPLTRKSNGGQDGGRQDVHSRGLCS
Test: Inhibition of CRP-XL/collagen-induced Ca2+ release and aggregation in washed human platelets; rightward shift of CRP-XL curve
Format: cell-based
Conditions: read-out: Ca^2+ RELEASE / CRP

## CCCCc1nc(Cl)c(CO)n1Cc1ccc(-c2ccccc2-c2nn[nH]n2)cc1 [losartan]
  IC50: 4 µM
